Source: PMC8237038 (Acta Pharmacologica Sinica, 2021)
Like-named read-outs stand apart in the source and are kept apart here.

Protein sequences, listed by entry. Tags and fused reporters are not part of them. Residues count along the entry.
UniProt P08684, 2-503: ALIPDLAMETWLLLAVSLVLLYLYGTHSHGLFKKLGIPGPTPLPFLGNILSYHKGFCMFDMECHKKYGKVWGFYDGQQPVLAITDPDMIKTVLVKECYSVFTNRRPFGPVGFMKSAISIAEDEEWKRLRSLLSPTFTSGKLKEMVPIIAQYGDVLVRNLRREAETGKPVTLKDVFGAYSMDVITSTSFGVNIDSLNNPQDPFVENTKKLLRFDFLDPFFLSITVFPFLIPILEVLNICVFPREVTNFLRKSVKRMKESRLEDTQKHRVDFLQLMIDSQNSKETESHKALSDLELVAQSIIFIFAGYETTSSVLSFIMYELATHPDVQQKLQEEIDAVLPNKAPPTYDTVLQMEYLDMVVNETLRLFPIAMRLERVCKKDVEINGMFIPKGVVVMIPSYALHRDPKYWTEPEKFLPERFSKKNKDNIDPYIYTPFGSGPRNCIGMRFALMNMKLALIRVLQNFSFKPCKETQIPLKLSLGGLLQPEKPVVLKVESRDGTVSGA

Molecular target: CYP3A (Homo sapiens, UniProt P08684)
Details: for Ratio: IC50 3 min / 33 min preincubation
[1] = 100 μM, HLMs, 3 min or 33 min preincubation, inhibition slightly time dependent
[2] = read-out: Time-dependent inhibition IC50 Preincubation for 3 min, constituents, HLMs, 3 min preincubation
[3] = read-out: Time-dependent inhibition IC50 Preincubation for 33 min, constituents, HLMs, 33 min preincubation

Substance	inhibitory effects against CYP3A [1]	IC50 [2] [µM]	IC50 [3] [µM]	Ratio (constituents)	IC50 (microsomes) [µM]	inhibitory effects against CYP3A (microsomes)
Cryptochlorogenic acid	weak inhibitory effects	> 100	> 100	–	–	–
Isochlorogenic acid A	weak inhibitory effects	> 100	> 100	–	–	–
Isochlorogenic acid B	weak inhibitory effects	> 100	> 100	–	–	–
Isochlorogenic acid C	weak inhibitory effects	> 100	> 100	–	–	–
Licochalcone A	–	2 ± 0.1	0.93 ± 0.04	2.15	–	–
Licochalcone B	–	14.1 ± 1.55	6.81 ± 0.66	2.07	–	–
Licochalcone C	–	6.02 ± 0.41	2.51 ± 0.12	2.40	–	–
Neochlorogenic acid	–	–	–	–	> 100	weak inhibitory effects
Rutinum	–	–	–	–	> 100	–
